Drawing on ChEMBL document CHEMBL3576868 (J Med Chem, 2015), this text covers IC50 for 1 molecule.

The term IC50 denotes the concentration at which inhibition is half-maximal. A high value points to weaker potency in that assay.

Assay [1] has as its target T1, Beta-N-acetyl-D-hexosaminidase-A/B (Homo sapiens, UniProt P07686+P06865).
T1 sequence (P07686 whole entry): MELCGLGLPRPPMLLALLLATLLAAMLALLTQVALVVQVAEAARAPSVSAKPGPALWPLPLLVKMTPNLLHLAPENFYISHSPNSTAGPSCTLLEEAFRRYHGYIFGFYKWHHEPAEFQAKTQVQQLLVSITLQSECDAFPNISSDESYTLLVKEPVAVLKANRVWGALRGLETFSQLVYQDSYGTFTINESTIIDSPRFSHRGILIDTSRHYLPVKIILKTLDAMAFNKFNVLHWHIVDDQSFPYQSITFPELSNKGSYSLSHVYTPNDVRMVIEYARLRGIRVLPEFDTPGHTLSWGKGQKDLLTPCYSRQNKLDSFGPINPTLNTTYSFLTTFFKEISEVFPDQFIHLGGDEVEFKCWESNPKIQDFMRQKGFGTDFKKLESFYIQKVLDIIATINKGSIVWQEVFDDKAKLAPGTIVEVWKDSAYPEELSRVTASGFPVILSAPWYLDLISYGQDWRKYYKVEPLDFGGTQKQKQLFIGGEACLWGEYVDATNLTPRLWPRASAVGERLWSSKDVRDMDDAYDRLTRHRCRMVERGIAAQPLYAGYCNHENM
T1 sequence (P06865 whole entry): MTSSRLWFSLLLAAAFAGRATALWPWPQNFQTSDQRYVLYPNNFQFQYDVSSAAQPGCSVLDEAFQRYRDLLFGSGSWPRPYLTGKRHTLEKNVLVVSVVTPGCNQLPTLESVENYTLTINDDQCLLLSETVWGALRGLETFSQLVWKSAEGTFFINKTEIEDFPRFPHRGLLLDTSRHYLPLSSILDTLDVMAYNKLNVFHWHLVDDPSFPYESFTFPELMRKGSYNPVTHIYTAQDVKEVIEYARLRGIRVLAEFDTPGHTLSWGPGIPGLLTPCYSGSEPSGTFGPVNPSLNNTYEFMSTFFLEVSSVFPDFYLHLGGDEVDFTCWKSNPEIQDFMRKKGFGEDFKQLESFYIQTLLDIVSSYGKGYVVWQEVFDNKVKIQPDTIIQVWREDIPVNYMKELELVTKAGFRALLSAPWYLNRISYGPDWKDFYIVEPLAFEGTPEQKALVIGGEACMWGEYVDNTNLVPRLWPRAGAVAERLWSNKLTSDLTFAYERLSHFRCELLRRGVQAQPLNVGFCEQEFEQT
The experiment in a line: Inhibition of human placental HexA using pNPGlcNAc substrate. A digest of the protocol: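 Purified Hex A from human placenta (10 ng/mL) incubated at 37 °C with diluted compound and pNPGlcNAc (1.6 mM) in McIlvaine citrate phosphate buffer pH 4.5 with 0.025% human serum albumin. Reaction stopped with 0.1 M MAP pH 10.5 and absorbance read at 405 nm. IC50 obtained by non-linear fitting of the dose−response curve.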

For assay [2], the target named is T1, Beta-N-acetyl-D-hexosaminidase-A/B. The assay is described as follows: Inhibition of beta-N-acetylhexosaminidase (unknown origin). Format: protein assay.

As to `CCc1nc(N)nc(N)c1-c1ccc(Cl)cc1` [PYRIMETHAMINE], the IC50 was 17 µM in assay [1] and 15 µM in assay [2].
